Data taken from patent US9453031B2, “Chemical entities” (Fundación Centro Nacional de Investigaciones Oncológicas …, priority 2013, dated 2016).

Amino acid sequences for entries named in this document (tags omitted).
UniProt P78527, whole entry: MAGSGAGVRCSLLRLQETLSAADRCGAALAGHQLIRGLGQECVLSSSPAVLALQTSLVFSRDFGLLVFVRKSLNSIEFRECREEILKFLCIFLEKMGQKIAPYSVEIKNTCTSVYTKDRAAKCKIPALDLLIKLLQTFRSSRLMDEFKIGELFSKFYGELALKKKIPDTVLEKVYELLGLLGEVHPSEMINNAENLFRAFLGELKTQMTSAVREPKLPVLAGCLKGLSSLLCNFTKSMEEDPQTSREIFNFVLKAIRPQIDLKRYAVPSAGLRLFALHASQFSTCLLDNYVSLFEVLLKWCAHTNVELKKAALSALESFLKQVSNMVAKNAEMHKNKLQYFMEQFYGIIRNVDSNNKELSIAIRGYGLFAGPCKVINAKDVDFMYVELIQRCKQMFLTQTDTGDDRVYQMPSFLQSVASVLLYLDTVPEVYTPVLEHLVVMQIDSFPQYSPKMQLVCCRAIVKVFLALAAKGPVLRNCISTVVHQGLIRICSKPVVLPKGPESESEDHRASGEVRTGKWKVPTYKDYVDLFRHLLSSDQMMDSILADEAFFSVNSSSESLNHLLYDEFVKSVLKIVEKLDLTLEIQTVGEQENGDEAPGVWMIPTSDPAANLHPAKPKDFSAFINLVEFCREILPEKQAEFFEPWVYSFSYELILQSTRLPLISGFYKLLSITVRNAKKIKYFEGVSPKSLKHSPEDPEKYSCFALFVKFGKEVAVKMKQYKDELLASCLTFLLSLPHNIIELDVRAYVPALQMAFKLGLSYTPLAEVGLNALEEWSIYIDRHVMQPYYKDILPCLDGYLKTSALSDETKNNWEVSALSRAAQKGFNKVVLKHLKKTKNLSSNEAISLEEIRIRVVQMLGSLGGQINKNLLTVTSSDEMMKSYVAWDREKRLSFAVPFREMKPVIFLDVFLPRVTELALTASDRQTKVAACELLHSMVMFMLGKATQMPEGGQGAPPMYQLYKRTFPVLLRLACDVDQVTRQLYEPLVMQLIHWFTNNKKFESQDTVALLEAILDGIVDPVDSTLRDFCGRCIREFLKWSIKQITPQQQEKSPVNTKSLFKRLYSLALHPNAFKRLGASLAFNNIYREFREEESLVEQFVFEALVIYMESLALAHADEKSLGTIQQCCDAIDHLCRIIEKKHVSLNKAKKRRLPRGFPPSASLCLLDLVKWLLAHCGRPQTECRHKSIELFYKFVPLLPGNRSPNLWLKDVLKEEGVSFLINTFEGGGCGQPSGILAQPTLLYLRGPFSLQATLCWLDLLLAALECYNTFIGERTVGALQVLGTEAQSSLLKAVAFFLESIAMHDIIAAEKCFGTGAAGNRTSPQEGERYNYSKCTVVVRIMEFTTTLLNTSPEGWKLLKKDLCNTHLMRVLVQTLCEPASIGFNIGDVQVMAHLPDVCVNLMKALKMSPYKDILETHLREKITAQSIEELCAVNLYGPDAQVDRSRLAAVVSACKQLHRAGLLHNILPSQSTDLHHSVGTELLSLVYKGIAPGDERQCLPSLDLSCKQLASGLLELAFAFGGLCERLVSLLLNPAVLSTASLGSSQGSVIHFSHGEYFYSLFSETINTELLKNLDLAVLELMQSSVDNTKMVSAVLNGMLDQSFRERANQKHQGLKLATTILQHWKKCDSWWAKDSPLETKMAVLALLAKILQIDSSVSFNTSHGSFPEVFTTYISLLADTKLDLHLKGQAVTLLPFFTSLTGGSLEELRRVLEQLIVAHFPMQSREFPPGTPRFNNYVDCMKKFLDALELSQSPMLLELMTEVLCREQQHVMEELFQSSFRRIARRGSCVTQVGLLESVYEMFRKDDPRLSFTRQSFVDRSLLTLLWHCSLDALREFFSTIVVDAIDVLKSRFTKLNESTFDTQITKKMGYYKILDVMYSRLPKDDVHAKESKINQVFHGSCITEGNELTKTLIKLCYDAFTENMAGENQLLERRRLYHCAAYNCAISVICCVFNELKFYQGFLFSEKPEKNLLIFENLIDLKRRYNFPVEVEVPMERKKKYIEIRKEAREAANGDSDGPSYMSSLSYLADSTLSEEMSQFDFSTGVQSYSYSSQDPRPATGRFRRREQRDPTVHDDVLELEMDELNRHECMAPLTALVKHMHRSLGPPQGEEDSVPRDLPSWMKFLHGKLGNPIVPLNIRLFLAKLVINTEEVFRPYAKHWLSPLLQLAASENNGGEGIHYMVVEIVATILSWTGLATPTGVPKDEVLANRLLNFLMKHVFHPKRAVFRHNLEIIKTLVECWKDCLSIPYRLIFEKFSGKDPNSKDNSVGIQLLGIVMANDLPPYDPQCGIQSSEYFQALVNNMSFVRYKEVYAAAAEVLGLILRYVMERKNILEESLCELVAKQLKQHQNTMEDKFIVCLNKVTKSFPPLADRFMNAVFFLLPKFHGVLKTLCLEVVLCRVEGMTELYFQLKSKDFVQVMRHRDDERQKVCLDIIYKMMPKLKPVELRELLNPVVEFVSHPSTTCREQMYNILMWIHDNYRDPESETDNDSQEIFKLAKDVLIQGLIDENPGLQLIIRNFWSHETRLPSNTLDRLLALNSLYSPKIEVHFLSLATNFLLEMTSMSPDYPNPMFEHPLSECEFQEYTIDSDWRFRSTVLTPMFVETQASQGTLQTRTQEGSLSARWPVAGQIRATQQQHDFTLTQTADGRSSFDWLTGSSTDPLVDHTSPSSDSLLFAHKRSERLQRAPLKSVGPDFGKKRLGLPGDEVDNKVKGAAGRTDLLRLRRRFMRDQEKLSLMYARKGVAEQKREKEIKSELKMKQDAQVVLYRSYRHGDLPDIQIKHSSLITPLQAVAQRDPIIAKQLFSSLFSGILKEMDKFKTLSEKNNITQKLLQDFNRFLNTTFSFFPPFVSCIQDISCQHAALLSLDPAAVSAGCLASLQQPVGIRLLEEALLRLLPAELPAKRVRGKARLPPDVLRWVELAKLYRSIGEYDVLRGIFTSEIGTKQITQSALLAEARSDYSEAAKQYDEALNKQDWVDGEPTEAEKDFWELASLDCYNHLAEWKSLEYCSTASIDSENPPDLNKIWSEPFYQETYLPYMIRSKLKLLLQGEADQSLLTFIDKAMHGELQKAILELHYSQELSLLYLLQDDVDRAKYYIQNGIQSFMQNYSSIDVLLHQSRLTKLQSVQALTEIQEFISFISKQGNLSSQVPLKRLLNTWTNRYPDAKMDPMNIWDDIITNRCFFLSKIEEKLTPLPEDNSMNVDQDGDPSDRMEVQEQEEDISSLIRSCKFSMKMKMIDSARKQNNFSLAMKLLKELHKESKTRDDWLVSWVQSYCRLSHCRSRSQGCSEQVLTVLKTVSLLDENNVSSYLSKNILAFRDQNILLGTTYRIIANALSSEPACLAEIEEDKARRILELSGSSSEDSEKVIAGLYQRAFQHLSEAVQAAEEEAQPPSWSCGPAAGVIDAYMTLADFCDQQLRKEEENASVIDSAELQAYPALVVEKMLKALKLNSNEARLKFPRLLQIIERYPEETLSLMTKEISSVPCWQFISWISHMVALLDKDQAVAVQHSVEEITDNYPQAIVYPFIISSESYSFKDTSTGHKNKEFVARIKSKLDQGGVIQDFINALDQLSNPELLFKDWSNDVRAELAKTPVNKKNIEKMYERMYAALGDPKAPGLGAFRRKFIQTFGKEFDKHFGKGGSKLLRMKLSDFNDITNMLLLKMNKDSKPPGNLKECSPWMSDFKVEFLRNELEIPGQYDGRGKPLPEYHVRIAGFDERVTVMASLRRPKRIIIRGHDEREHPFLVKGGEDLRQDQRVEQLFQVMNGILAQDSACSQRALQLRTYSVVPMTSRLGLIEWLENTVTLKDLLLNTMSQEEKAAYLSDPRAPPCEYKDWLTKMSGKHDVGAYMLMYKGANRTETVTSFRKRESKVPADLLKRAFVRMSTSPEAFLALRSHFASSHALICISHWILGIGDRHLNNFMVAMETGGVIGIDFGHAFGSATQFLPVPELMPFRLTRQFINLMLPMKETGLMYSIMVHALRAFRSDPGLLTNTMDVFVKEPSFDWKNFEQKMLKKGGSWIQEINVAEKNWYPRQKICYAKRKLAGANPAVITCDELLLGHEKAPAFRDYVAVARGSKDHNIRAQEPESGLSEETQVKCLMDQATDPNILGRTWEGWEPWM

Target: DNA-PK (Homo sapiens (Human), UniProt P78527)
Test: DNAPK activity assay (ADP Hunter Plus)
Type: biochemical
Details: 75 μM ATP
Experimental: The kinase activity was measured by using the commercial ADP Hunter™ Plus assay available from DiscoveRx (#90-0083), which is a homogeneous assay to measure the accumulation of ADP, a universal product of kinase activity. The enzyme, DNA-PK was purchased from Promega (#V5811). The assay was done following the manufacturer recommendations with slight modifications: Mainly the kinase buffer was replace by 15 mM HEPES, pH 7.5, 10 mM MgCl2, 20 mM NaCl, 1 mM EGTA, 0.1 mg/mL BGG, 0.02% Tween 20. The DNA-PK was assayed in a titration experiment to determine the optimal protein concentration for the inhibition assay. To calculate the […] of the Compounds, serial 1:3 dilutions of the compounds were added to the enzyme at a fixed concentration (2 U/μL). The enzyme was preincubated with the inhibitor and 200 μM DNA substrate and then ATP was added to a final 75 μM concentration. Reaction was carried out for 1 hour at 37° C. Reagent A and B were sequentially added to the wells and plates were incubated for 30 min at RT. Fluorescence counts were read in a EnVision instrument (Perkin Elmer) with the recommended settings (550 and 590 nm as excitation and emission wavelengths, respectively).

## CC(C)(c1nc(-c2cccc3[nH]ccc23)nc2c1OCC[C@@H]1COCCN21)S(C)(=O)=O [Example 25]
  IC50: 10 µM
